The entries are a selection whose mix differs from that of the whole data set. The source made the active and inactive calls.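 How the source made its calls: active means compounds whose thallium flux B-score, printed positive for inhibition, exceeds three library SD while starting fluorescence stays within three; inactive means the rest.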
biological target: Potassium voltage-gated channel subfamily KQT member 1 (Homo sapiens) (UniProt P51787); assay: KCNQ1 potassium current blockers – cell-based, thallium flux, high-throughput, primary screen (AID 2642); details: CHO-K1 KCNQ1, FluxOR thallium flux fluorescence, at 10 µM;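 further: channel opened by potassium depolarization with thallium stimulus after 20 min compound exposure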

Amino acid sequences for entries named in this document (tags omitted).
UniProt P51787, whole entry: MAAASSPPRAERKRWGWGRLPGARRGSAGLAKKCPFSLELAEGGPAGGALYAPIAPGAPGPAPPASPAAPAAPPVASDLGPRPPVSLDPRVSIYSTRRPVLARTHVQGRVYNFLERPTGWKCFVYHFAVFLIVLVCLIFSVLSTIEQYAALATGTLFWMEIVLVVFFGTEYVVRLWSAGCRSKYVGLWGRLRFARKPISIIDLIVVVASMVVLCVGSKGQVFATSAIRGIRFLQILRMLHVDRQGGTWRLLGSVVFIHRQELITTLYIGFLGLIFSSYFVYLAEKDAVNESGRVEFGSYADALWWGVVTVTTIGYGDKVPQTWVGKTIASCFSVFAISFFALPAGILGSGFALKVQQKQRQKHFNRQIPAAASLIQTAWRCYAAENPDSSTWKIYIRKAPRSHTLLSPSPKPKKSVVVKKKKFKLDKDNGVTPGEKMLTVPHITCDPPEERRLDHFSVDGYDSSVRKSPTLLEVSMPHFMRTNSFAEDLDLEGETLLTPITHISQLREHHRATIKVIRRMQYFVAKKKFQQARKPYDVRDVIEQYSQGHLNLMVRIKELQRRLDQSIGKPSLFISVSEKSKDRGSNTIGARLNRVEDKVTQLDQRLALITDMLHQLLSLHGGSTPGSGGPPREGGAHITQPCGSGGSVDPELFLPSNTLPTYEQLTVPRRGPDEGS

Compound | outcome
COc1ccccc1OP(C)(=O)Nc1cc(Cl)ccc1C (centres undefined) | inactive
CC(C)NC(=O)NP(=O)(Oc1ccccc1)Oc1ccccc1 | inactive
CCN(CC)C(=S)SC(NC=O)C(Cl)(Cl)Cl (centres undefined) | inactive
Cc1cc(C)cc(OP(C)(N)=O)c1 (centres undefined) | inactive
Cc1c2c(nc3ccccc13)SC(C(Cl)Cl)C2 (centres undefined) | inactive
CCN(CC)CCCOC(=O)C(O)(c1ccccc1)c1ccccc1 | inactive
Cc1cc(=O)[nH]c(N[N+](=O)[O-])n1 | inactive
O=C(OC1CN2CCC1CC2)C12CC3CC(CC(C3)C1)C2 (centres undefined) | inactive
COc1cc(I)ccc1[As](=O)(O)O | inactive
COc1ccc2nc(NP(=O)(c3ccccc3)c3ccccc3)sc2c1 | inactive
COc1ccc(N/C(=N/P(=O)(N2CCOCC2)N2CCOCC2)N2CCOCC2)cc1 | inactive
CP(=O)(Oc1ccccc1)OC(c1ccccc1)C(F)(F)F (centres undefined) | inactive
COP1(=S)c2c(C)nn(CCC#N)c2N=C(c2ccc(F)cc2)N1C (centres undefined) | inactive
Cc1cccc(C)c1OP(C)(=O)Nc1ccc(SC(F)(F)F)cc1 (centres undefined) | inactive
CP(=O)(Nc1ccc(SC(F)(F)F)cc1)Oc1ccc(Cl)cc1 (centres undefined) | inactive
Cc1cc(C)cc(OP(C)(=O)Nc2ccc(SC(F)(F)F)cc2)c1 (centres undefined) | inactive
O=C(Nc1ccncc1[N+](=O)[O-])c1ccc([N+](=O)[O-])cc1[N+](=O)[O-] | inactive
O=C(COc1ccccc1)OC1CN2CCC1CC2 (centres undefined) | inactive
CP(=O)(NC(=O)Nc1ccccc1)Oc1ccccc1 (centres undefined) | inactive
CCc1ccc(OP(C)(=O)N2CCN(c3ccc([N+](=O)[O-])cc3)CC2)cc1 (centres undefined) | inactive
O=C(OC1CN2CCC1CC2)c1cccc([N+](=O)[O-])c1 (centres undefined) | inactive
CCOP(C)(=S)SCC(=O)NC(C)C(=O)O (centres undefined) | inactive
CCOC(=O)c1ccc(NP(C)(=O)Oc2ccc(OC)cc2)cc1 (centres undefined) | inactive
CCOC(=O)c1ccc(NC(=O)C(C)(CCl)SC)cc1 (centres undefined) | inactive
O=[N+]([O-])c1cc([N+](=O)[O-])c(O)c([N+](=O)[O-])c1.c1ccc(Oc2ccncc2)cc1 | inactive

Compound | outcome
CCC(C)N(CC(C)C)C(=S)SC(NC(C)=O)C(Cl)(Cl)Cl (centres undefined) | inactive
CP(=O)(Nc1ccccn1)Oc1ccc(Cl)cc1 (centres undefined) | inactive
CCOC(=O)Nc1ccc([As](=O)(O)O)c(O)c1 | inactive
Cc1cc(SC(NC(=O)c2ccccc2)C(Cl)(Cl)Cl)nc(C(C)C)n1 (centres undefined) | inactive
CCCCOc1ccc(C(=O)NCC2(N3CCCCC3)CCCCC2)cc1OC | inactive
CP(=S)(Nn1cnnc1)Oc1ccccc1 (centres undefined) | inactive
CCOC(=O)Nc1cccc([As](=O)(O)O)c1 | inactive
COc1ccccc1OP(C)(=O)Nc1ccccc1 (centres undefined) | inactive
O=P(Nc1ccccn1)(c1cccc2ccccc12)c1cccc2ccccc12 | inactive
Cc1cc(SC(NC=O)C(Cl)(Cl)Cl)ncn1 (centres undefined) | inactive
O=[N+]([O-])c1ccc(Nc2ccc(Oc3ccc([N+](=O)[O-])cc3[N+](=O)[O-])cc2)c([N+](=O)[O-])c1 | inactive
CP(=O)(Nc1ccccc1Br)Oc1ccccc1 (centres undefined) | inactive
Nc1ccc2c(ccc3cccnc32)n1.O=[N+]([O-])c1cc([N+](=O)[O-])c(O)c([N+](=O)[O-])c1 | inactive
CP(=O)(OC12CC3CC(CC(C3)C1)C2)OC12CC3CC(CC(C3)C1)C2 | inactive
O=C(Nc1cc([As](=O)(O)O)ccc1O)c1ccccc1 | inactive
CCOC(=O)c1ccc(NP(C)(=O)Oc2ccc(Cl)cc2)cc1 (centres undefined) | inactive
O=[N+]([O-])c1ncn(CCn2ncnc2[N+](=O)[O-])n1 | inactive
CC(C)(C)C(=O)NC(Sc1ccncn1)C(Cl)(Cl)Cl (centres undefined) | inactive
O=C(O)CNc1ccc([As](=O)(O)O)cc1 | inactive
O=[N+]([O-])c1cccc(NC2=NCC(CBr)S2)c1 (centres undefined) | inactive
COc1ccc(C2=NCC(CBr)S2)cc1 (centres undefined) | inactive
COc1ccc(OP(C)(=O)Nc2ccc(Br)cc2)cc1 (centres undefined) | inactive
CCN(CC)CC(O)COC(=O)C(O)(c1ccccc1)C1CCCCC1 (centres undefined) | inactive
CCc1ccc(OP(C)(=O)Nc2cccnc2)cc1 (centres undefined) | inactive
CCc1nc2c(n1)c1c(non1O)c1c2no[n+]1[O-] | inactive

Compound | outcome
O=[N+]([O-])c1cc([N+](=O)[O-])c(CCNc2ccccc2)c([N+](=O)[O-])c1 | inactive
Cc1ccc(NP(=O)(Oc2ccccc2)Oc2ccccc2)nc1 | inactive
CP(=O)(Oc1ccccc1)N1CCOC1=O (centres undefined) | inactive
O=C(OCCCN1CCCC1)C(O)(c1ccccc1)C1CCCCC1 (centres undefined) | inactive
O=[N+]([O-])c1cccc2n[nH]nc12 | inactive
CC(=O)N1C2C3N(C(C)=O)C1C1N(C(C)=O)C(C(N1C(C)=O)N3C(C)=O)N2C(C)=O | inactive
COc1ccccc1OP(C)(=O)Nc1c(C)n(C)n(-c2ccccc2)c1=O (centres undefined) | inactive
CP(=O)(Nc1ccc(Cl)cc1)Oc1ccc(F)cc1 (centres undefined) | inactive
CCN(/C(=N/P(=O)(N1CCOCC1)N1CCOCC1)N1CCOCC1)c1ccc(OC)cc1 | inactive
C[N+]1=C2C=CC=CC=C2SC12C([N+](=O)[O-])=CC([N+](=O)[O-])=C[C-]2[N+](=O)[O-] (centres undefined) | inactive
COc1ccccc1OP(C)(=O)Nc1ccccc1Br (centres undefined) | inactive
CC(C)(C)c1ccc(OP(C)(=O)O)cc1 | inactive
Nc1ccc([As](=O)(O)c2ccc(N)cc2)cc1 | inactive
CC1CCN(C(=O)Oc2c(Cl)cc(Cl)c3cccnc23)CC1 | inactive
CN(C)C(=O)OCCc1n(C)cc[n+]1C | inactive
CN(C)C(=O)c1c([N+](=O)[O-])cc([N+](=O)[O-])cc1[N+](=O)[O-] | inactive
CC(C)=N/N=C(\N)N[N+](=O)[O-] | inactive
Cc1ccc(N/C(=N/P(=O)(N2CCOCC2)N2CCOCC2)N2CCOCC2)cc1 | inactive
COc1ccccc1OP(C)(=O)Nc1ccc(Br)cc1 (centres undefined) | inactive
NC(=O)c1cc([N+](=O)[O-])cc([N+](=O)[O-])c1N | inactive
CN1CCCC(OC(=O)C(c2ccccc2)c2ccccc2)C1 (centres undefined) | inactive
Clc1ccc(Cl)c(NC2=NCC(CBr)S2)c1 (centres undefined) | inactive
CN(C)CCOC(=O)C(O)(c1ccccc1)C1CCCC1 (centres undefined) | inactive
Cc1ccc(OP(=O)(Nc2nccs2)Oc2ccc(C)cc2)cc1 | inactive

Reference: PubChem BioAssay AID2642 (Johns Hopkins Ion Channel Center, 2010)
